Earlier results, collected in patent publication US20020103261A1, “Compositions for injection or intravenous administration for the treatment of internal infection or inflammation in humans and animals” (priority 2000, published 2002).

Conditions: inactive metabolites after enzymatic degradation; cited from earlier work

## Cc1ccc(C(C)C)c(O)c1 [isopropyl-cresol, 5-methyl-2[1-methylethyl]phenol]
  metabolites excreted in the urine: approx. 90%
